# Measured values reported in PubChem BioAssay AID441 (NMMLSC, 2006).
# By UniProt entry, the sequences of proteins in these tests, tags left out.
# UniProt P25090, whole entry: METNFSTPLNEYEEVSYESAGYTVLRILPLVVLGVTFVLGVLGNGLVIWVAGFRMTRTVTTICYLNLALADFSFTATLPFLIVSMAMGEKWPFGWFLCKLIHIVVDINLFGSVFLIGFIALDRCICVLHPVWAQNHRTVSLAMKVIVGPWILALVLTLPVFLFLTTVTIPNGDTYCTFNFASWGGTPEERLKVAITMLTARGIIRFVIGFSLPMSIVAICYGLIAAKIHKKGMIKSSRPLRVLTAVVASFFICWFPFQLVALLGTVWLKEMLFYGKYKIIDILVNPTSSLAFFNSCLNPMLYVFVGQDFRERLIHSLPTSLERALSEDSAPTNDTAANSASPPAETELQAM
# The entries are a selection whose mix differs from that of the whole data set. Active and inactive are the calls of the source. Rule as the data show it: active = inhibition above about 30%; inconclusive = no clear call, values can overlap the other calls; inactive = below that.
# Target: N-formyl peptide receptor 2 (Homo sapiens) (UniProt P25090)
# Assay: human FPRL1 ligands by binding competition, primary screen, cell-based, FPR counter-screen, flow cytometry (AID 441);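 also: 0% = buffer alone and 100% = receptor blocker peptide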
# Settings: FPRL1-expressing cells, fluorescent ligand binding inhibition, stronger effect = higher value, concentration not given here
row,SMILES,inhibition
1,N#CC1(Nc2ccccc2)CCN(CCc2ccccc2)CC1,inactive: -1.5%
2,Fc1ccccc1NC1CCN(Cc2ccccc2)CC1,inactive: -2%
